tested on: Adenosine receptor A2a (Bos taurus); experiment: Inhibition of [3H]CGS 21680 binding to adenosine A2A receptor in bovine striatal membranes at 10 uM; settings: Striatum, Membrane

| SMILES | inhibition |
| --- | --- |
| COc1ccc(-n2nc3c(NC(=O)C(c4ccccc4)c4ccccc4)nc4ccccc4n3c2=O)cc1 | 28.5% |
| COc1ccc(-n2nc3c(NC(=O)c4ccccc4)nc4c(N)cccc4n3c2=O)cc1 | 16% |
| COc1ccc(-n2nc3c(N(C(=O)c4ccccc4)C(=O)c4ccccc4)nc4c([N+](=O)[O-])cccc4n3c2=O)cc1 | 0% |
| O=C(c1ccccc1)N(C(=O)c1ccccc1)c1nc2ccccc2n2c(=O)n(-c3ccccc3)nc12 | 19% |

Next, values leading:

| inhibition | SMILES |
| --- | --- |
| 20% | COc1ccc(-n2nc3c(NC(C)=O)nc4c(N)cccc4n3c2=O)cc1 |
| 0% | COc1ccc(-n2nc3c(NC(C)=O)nc4ccccc4n3c2=O)cc1 |

target: Adenosine receptor A2a (Homo sapiens, UniProt P29274); experiment: Inhibition of [3H]NECA binding to human adenosine A2A receptor at 10 uM; settings: not given

| inhibition | SMILES |
| --- | --- |
| 27% | COc1ccc(-n2nc3c(NC(=O)C(c4ccccc4)c4ccccc4)nc4ccccc4n3c2=O)cc1 |
